Test results reported in BindingDB's records for doi:10.1124/jpet.102.039867 (Institut De Recherches Servier, 2002).

The chains behind the UniProt entries cited, without tags or fusion partners.
UniProt P08913, whole entry: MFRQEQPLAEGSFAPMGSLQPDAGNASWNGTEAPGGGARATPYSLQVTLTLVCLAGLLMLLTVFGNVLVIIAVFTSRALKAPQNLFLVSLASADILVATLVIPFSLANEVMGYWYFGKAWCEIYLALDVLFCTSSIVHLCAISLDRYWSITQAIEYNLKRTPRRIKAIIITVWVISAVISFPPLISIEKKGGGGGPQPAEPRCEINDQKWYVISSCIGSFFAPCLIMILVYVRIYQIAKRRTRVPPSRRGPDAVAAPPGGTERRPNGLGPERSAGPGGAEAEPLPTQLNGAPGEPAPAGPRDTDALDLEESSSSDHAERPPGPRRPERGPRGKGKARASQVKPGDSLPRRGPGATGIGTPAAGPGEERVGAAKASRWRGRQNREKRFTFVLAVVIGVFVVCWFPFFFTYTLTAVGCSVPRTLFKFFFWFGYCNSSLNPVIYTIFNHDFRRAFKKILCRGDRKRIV
UniProt P18825, whole entry: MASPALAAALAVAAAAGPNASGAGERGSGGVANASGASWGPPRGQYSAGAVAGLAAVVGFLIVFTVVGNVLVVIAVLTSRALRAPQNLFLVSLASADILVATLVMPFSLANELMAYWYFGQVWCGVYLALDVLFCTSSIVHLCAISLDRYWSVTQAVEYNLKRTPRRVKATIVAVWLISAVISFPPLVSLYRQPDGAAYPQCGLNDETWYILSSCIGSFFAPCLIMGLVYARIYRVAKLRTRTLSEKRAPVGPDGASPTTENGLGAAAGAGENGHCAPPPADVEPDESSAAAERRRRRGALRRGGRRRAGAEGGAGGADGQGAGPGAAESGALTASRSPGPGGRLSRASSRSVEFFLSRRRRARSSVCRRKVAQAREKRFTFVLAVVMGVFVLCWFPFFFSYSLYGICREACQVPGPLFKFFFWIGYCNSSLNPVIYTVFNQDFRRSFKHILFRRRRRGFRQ
UniProt P14416, whole entry: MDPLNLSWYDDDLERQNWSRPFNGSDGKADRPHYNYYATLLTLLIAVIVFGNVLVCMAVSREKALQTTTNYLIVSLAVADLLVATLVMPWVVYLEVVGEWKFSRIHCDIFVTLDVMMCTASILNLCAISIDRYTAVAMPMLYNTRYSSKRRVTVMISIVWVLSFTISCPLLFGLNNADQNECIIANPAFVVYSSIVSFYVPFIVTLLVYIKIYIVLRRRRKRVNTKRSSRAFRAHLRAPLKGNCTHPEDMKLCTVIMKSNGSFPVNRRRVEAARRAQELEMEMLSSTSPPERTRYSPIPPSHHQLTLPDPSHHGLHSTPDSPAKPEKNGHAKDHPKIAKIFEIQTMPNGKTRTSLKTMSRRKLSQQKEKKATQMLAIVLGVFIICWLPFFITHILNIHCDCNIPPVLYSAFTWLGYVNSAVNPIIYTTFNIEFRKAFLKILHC
UniProt P28223, whole entry: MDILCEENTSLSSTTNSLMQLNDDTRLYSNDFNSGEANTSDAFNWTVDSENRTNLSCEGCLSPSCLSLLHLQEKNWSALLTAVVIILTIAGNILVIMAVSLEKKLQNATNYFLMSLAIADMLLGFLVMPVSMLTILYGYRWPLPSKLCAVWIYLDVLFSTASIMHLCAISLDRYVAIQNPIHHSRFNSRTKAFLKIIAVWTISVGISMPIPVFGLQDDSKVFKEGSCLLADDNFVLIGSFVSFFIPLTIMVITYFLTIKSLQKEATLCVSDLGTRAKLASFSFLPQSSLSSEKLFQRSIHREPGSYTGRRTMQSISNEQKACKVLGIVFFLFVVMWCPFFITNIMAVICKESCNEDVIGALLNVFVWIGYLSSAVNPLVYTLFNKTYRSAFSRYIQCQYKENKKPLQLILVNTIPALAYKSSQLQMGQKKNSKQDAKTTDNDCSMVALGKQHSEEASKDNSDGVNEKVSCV

Legend:
[1] = biological target: Alpha-2A adrenergic receptor (Homo sapiens, UniProt P08913)
[2] = biological target: Alpha-2C adrenergic receptor (Homo sapiens, UniProt P18825)
D(2) dopamine receptor = D(2) dopamine receptor (Homo sapiens, UniProt P14416)
[3] = biological target: 5-hydroxytryptamine receptor 2A (Homo sapiens, UniProt P28223)

SMILES	Ki [1] [nM]	Ki [2] [nM]	Ki (D(2) dopamine receptor) [nM]	Ki [3] [nM]
CC(C)C[C@H]1C(=O)N2CCC[C@H]2[C@]2(O)O[C@](NC(=O)[C@@H]3C=C4c5cccc6[nH]c(Br)c(c56)C[C@H]4N(C)C3)(C(C)C)C(=O)N12 [Bromocriptine+ (GTP+)]	11	28.2	–	–
Oc1ccc2[nH]cc(CCCCN3CC=C(c4ccccc4)CC3)c2c1	–	–	2.82	–
CCCN1CCC[C@@H]2Cc3n[nH]cc3C[C@H]21 [NSC_54562]	> 10000	> 10000	–	> 10000
